scFv variants of Ab-91 (heavy chain) against a SARS-CoV-2 spike peptide

Values reported by Engelhart et al. 2022, doi:10.1038/s41597-022-01779-4 (FLAb copy).

The target is the same throughout: PDVDLGDISGINAS, from the HR2 region of SARS-CoV-2 spike.

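The starting antibody came from a phage panning campaign against this peptide. AAYL51 was designed without a model: most single CDR substitutions and a random sample of double and triple ones. Affinity was read by AlphaSeq, a pooled yeast mating assay with surface-displayed partners. The frequency of each diploid, read from paired DNA barcodes, reflects how well the two displayed proteins bind. Scores were corrected for input abundance and mapped to Kd with protein pairs of known affinity run in the same pool. The assay was run in three technical replicates.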

The variants keep the light chain, the linker and the frameworks of Ab-91 (scFv order VL, the linker GGGGSGGGGSGGGGS, VH).
VL: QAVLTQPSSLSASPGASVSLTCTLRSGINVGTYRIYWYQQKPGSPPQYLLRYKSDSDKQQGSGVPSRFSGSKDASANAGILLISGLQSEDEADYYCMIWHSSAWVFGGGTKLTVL
VH: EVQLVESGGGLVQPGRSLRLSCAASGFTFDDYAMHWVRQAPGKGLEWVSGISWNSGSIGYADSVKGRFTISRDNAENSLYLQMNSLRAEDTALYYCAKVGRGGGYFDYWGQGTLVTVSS

Substitutions are numbered in sequence along the VH above, starting at 1 (not Kabat).
Affinities are written as log10 Kd with Kd in nM; a lower number is a better binder.
A mean of the replicates is given; it leaves out those without a signal.
"ND" means that the variant was in the library but no mating with the target was seen in that replicate; the authors take this as a sign of poor binding, and no number exists.
Nonspecific signal, from three strains lacking the peptide, appeared in 21% of pairings of library AAYL51, centred on 4.54 (5% of these signals below 3.26); values are not corrected for it. Also given: how often the same scFv was detected with the empty control strains, with their mean in brackets.

| changes | replicates, log10 nM | mean log10 Kd (nM) | control signals |
|---|---|---|---|
| S55F G103R | 3.59 / 3.75 / 5.06 | 4.13 | 5 of 9 (4.71) |
| A33E M34L K65C | 3.22 / ND / 3.19 | 3.21 | 2 of 9 (3.34) |
| G100T G104W Y105R | ND / ND / ND | ND | 1 of 9 (3.60) |
| H35L Y105W D107C | 4.69 / 6.63 / ND | 5.66 | 6 of 9 (4.35) |
| D30N M34P S55F | ND / ND / ND | ND | 1 of 9 (3.12) |
| S57R V99Q | 4.66 / 5.84 / ND | 5.25 | 3 of 9 (4.96) |
| F29W F106Q D107M | ND / ND / ND | ND | 0 of 9 |
| S55R G100N G103E | ND / ND / ND | ND | 1 of 9 (3.65) |
| F27E F29W G56S | ND / 3.73 / 5.16 | 4.45 | 2 of 9 (4.55) |
| S52N N54Q G59R | 4.17 / 5.12 / 5.24 | 4.84 | 3 of 9 (4.50) |
| I51P R101M Y105I | ND / ND / 5.07 | 5.07 | 3 of 9 (4.08) |
| A33L S57C A61Y | ND / ND / ND | ND | 0 of 9 |
| D62E K65A G102H | ND / ND / ND | ND | 2 of 9 (2.92) |
| S55Y I58F | ND / ND / ND | ND | 0 of 9 |
| I51G S57M A61P | ND / ND / ND | ND | 0 of 9 |
| Y60G A61H Y105T | 5.83 / ND / ND | 5.83 | 7 of 9 (4.42) |
| F27R Y32W H35C | ND / ND / ND | ND | 1 of 9 (3.74) |
| M34Y V64E Y108H | ND / ND / ND | ND | 0 of 9 |
| S55W D62H F106N | 4.06 / ND / 5.27 | 4.66 | 5 of 9 (5.08) |
| M34W K65G Y108Q | ND / 4.53 / ND | 4.53 | 0 of 9 |
| W53L N54C Y60D | ND / ND / ND | ND | 1 of 9 (4.70) |
| A33P M34V V64D | ND / ND / ND | ND | 2 of 9 (2.44) |
| H35C V99P Y108I | ND / ND / ND | ND | 2 of 9 (4.52) |
| Y32M G56D Y105F | 1.47 / 1.54 / 0.74 | 1.25 | 4 of 9 (3.85) |
| F27N D31H K65H | ND / ND / ND | ND | 2 of 9 (4.51) |
| D62T K65L | 2.76 / 2.82 / 2.39 | 2.66 | 0 of 9 |
| G56I Y60Q Y105C | 4.67 / 4.12 / ND | 4.40 | 6 of 9 (4.75) |
| F27R S52E G102H | ND / 3.79 / ND | 3.79 | 6 of 9 (4.57) |
| N54G V99A G100W | 3.50 / ND / 4.52 | 4.01 | 5 of 9 (3.91) |
| M34A S52W N54D | 4.26 / 6.28 / 4.00 | 4.85 | 7 of 9 (5.55) |
| G56V R101L G102E | ND / ND / ND | ND | 0 of 9 |
| Y32V Y60G G104K | ND / ND / ND | ND | 1 of 9 (3.99) |
| T28M H35Q V99H | ND / 4.67 / 4.56 | 4.61 | 5 of 9 (4.70) |
| T28V G50R N54F | ND / 5.13 / 5.04 | 5.09 | 3 of 9 (4.80) |
| Y32K A61W | ND / 4.66 / ND | 4.66 | 0 of 9 |
| D31G G59F V99A | ND / ND / ND | ND | 2 of 9 (3.71) |
| M34E G102Q | 3.70 / 5.30 / ND | 4.50 | 1 of 9 (3.89) |
| M34P A61C G100L | ND / 5.78 / ND | 5.78 | 2 of 9 (4.29) |
| G100C G104T D107P | ND / ND / ND | ND | 0 of 9 |
| D30L H35N G56I | 5.92 / 4.33 / 5.56 | 5.27 | 7 of 9 (5.01) |

Repeated from above, the 4 best binders with a signal in all replicates:

| changes | replicates, log10 nM | mean log10 Kd (nM) | control signals |
|---|---|---|---|
| Y32M G56D Y105F | 1.47 / 1.54 / 0.74 | 1.25 | 4 of 9 (3.85) |
| D62T K65L | 2.76 / 2.82 / 2.39 | 2.66 | 0 of 9 |
| S55F G103R | 3.59 / 3.75 / 5.06 | 4.13 | 5 of 9 (4.71) |
| S52N N54Q G59R | 4.17 / 5.12 / 5.24 | 4.84 | 3 of 9 (4.50) |